Earlier results as cited in patent publication US20090186900A1, “COMPOUND” (priority 2006, published 2009).

Sequences of proteins named here, by UniProt entry; tags and fusion partners are left off. Residues count along the entry.
UniProt P08842, 22-583: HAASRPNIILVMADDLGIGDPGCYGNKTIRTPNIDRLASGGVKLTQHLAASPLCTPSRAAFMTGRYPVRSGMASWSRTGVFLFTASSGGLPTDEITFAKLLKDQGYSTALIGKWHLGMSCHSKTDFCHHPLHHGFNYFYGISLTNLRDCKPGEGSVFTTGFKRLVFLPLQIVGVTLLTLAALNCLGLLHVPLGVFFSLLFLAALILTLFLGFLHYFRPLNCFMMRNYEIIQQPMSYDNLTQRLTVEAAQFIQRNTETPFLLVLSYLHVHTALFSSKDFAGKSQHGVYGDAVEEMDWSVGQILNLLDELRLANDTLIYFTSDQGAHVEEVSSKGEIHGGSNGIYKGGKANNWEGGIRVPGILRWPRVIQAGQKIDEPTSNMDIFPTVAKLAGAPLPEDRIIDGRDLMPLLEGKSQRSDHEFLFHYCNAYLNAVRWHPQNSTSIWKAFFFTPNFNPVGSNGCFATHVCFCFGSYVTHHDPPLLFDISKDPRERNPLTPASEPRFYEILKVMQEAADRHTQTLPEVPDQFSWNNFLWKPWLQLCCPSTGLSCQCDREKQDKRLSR

Target: steroid sulphatase (Homo sapiens, UniProt P08842)
Details: in vitro; cited from earlier work

NS(=O)(=O)Oc1ccc2c3c(c(=O)oc2c1)CCCCC3 [Compound 667COUMATE]
potency relative to EMATE: ~3 times
